Reference: patent US7202043B2, “Detecting cell membrane protein endocytosis” (Discover Corporation, priority 2004, dated 2007)

Target: T1, V2 receptor tagged with a FLAG sequence (Homo sapiens, UniProt P30518)
T1 construct: expressed in transfected cells; host or cells: CHO (Chinese Hamster Ovary) cells
Assay: Endocytosis assay (Protocol I): enzyme fragment complementation with ED-labeled anti-FLAG antibody, chemiluminescence readout
Type: cell-based
Settings: CHO cells expressing FLAG-tagged V2 receptor, 50,000 cells/well; agonist 1 μM; incubated 5, 10, 15, 30 or 60 minutes; signal rises up to thirty minutes, decreases after
Method: Cells are suspended in media with 10% fetal bovine serum, plated in a 96-well tissue culture plate, and allowed to grow overnight under standard tissue culture conditions at 37° C. The next day, media is exchanged and replaced with 50 μL serum free media.
10 μL of ED labeled anti-FLAG antibody (145 nM reagent concentration) is added to each well, then the plate is incubated for 1 hour at 37° C. (tissue culture incubator). After the incubation is complete, 10 μL agonist or vehicle (assay buffer without agonist) is added to appropriate wells, and the plate is incubated for an additional 30 minutes at 37° C.
10 μL of Chyrnotrysin Reagent (100 units/mL chymotrypsin, 7 mM EDTA in PBS) is added to all wells, and the plate is incubated for 15 minutes at room temperature. Then 140 μL of Cell Lysis Reagent containing protease inhibitor (0.75% CHAPS, 75 μM chymostatin, 3 mg/mL BSA fragments in a phosphate buffered saline) is added, and incubated for 10 minutes at 37° C. This is followed by the addition of 20 μL of EA Reagent (360 μg/mL EA in a buffered solution with carrier protein) and an incubation of 1 hour at 37° C. In the final step, chemiluminescent substrate (Tropix) is added, incubated at least 20 minutes, and then the signal is read on a luminescence reader. […]

## [Arg8]-Vasopressin [AVP]
  internalization of antibody-ED conjugate bound to FLAG-tagged receptor (RLU vs. incubation time with AVP): increasingly internalized
